{"sequences": {"note": "Sequences of proteins named here, by UniProt entry; tags and fusion partners are left off.", "UniProt P31645, whole entry": "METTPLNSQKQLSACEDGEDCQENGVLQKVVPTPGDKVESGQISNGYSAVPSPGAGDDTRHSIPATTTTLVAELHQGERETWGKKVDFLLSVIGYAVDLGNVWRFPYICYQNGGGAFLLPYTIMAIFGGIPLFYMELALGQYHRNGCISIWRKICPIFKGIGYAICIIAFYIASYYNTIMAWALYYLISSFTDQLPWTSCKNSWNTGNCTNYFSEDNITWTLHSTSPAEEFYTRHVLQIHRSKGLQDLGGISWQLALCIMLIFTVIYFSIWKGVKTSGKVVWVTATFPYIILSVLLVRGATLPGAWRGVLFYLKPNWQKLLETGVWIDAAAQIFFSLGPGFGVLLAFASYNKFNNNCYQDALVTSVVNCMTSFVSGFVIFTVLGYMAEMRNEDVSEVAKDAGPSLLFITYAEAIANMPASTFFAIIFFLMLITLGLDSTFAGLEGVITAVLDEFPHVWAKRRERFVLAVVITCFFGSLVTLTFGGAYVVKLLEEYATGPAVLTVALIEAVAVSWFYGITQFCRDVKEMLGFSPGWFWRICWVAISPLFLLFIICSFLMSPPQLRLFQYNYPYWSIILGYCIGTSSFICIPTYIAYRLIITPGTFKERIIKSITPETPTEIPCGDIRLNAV", "UniProt P23975, whole entry": "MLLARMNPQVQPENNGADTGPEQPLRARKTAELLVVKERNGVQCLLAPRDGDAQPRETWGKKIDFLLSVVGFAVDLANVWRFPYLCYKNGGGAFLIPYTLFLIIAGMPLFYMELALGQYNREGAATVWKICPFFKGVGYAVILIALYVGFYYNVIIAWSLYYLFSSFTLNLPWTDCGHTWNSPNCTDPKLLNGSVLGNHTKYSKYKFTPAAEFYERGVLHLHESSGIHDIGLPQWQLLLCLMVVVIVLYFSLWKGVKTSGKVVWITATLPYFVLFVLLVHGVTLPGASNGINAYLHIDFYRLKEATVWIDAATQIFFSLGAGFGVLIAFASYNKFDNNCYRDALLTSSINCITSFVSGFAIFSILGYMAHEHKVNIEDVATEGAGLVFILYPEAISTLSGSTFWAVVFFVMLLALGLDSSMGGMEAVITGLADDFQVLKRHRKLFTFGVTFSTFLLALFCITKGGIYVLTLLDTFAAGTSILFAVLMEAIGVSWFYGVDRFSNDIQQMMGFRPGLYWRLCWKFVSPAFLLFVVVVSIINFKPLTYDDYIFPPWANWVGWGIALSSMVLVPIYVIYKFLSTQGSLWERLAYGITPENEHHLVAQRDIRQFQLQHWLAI"}, "source": "patent US20070053968A1", "about": "(Wyeth, priority 2005, published 2007)", "origin": "cited, not measured here", "key": {"[1]": {"target": "neuronal serotonin re-uptake (Homo sapiens, UniProt P31645)"}, "[2]": {"target": "neuronal norepinephrine re-uptake (Homo sapiens, UniProt P23975)"}}}
{"smiles": "CN(C)CC(c1ccc(O)cc1)C1(O)CCCCC1", "note": "(stereo not shown) [ODV]", "values": [{"measurement": "inhibition of neuronal serotonin re-uptake", "setting": "[1]", "value": "potent inhibitors"}, {"measurement": "potency of serotonin re-uptake inhibition compared with venlafaxine", "setting": "[1]", "value": "more potent inhibitor"}, {"measurement": "inhibition of neuronal norepinephrine re-uptake", "setting": "[2]", "value": "potent inhibitors"}, {"measurement": "potency of norepinephrine re-uptake inhibition compared with venlafaxine", "setting": "[2]; in vitro studies, versus venlafaxine", "value": "more potent inhibitor"}]}
